The record followed here is patent publication US20100247444A1, “COMPOUND, […], NUCLEAR MAGNETIC RESONANCE ANALYSIS METHOD, NUCLEAR MAGNETIC RESONANCE IMAGING METHOD, MASS SP[…] AND MASS SP[…] METHOD” (KYOTO UNIVERSITY, priority 2007, published 2010).

For the data set the following is noted: Meth-A cancer bearing BALB/c mouse; 100 μl of 2 mg/ml in PBS via tail vein; organs collected after 1 hour; liver lysate supernatant. As to the method:
(i) Preparation of a cancer bearing mouse Meth-A cells cultured in abdominal cavity of a BALB/c mouse were harvested by administrating 50 ml saline to the mouse. The cells were collected by centrifugation and resuspended in PBS (50 ml). The cells were counted and prepared at 2.0×10^7/ml. 100 μl of the solution containing the cells was subcutaneously injected to a left foot of another BALE/c mouse. […] After 1 hour, the mouse was dissected and the necessary organs (blood (200 μl), liver, kidney, cancer) were collected into microtubes. 1× Lysis buffer (500 μl) was added to each of the tubes and the organs were mashed by using beads. The microtubes were centrifuged (14,000 rpm, 30 min) for the debris to be precipitated and the supernatants were collected and subjected to multiple resonance measurement utilizing magnetic coherence transfer between three elements of ^1H—^13C—^15N.

Regarding `[13CH3][15N+]([13CH3])([13CH3])CCO` [^13C3—^15N-choline chloride], the “signals derived from methyl groups of cholines (triple resonance NMR, 3.0 ppm) in liver” value was “detected”.
